Reference: patent US20190358206A1, “TOPICAL FORMULATIONS OF BIARYL HETEROCYCLIC COMPOUNDS AND METHODS OF USE THEREOF” (Melinta Subsidiary Corp., priority 2016, published 2019)
Values after ≈ are worked out from the molar mass of the structure shown. Read-outs that look alike come from different tables or passages of the source.

What was measured:
[1] = test system: B. thetaiotaomicron ATCC 29741; assay: microbe, parasite or virus in culture; type: cell-based; conditions: Bacteroides thetaiotaomicron, ATCC29741, read-out: MIC, Broth
[2] = test system: B. thetaiotaomicron ATCC 29741; assay: microbe, parasite or virus in culture; type: cell-based; conditions: Bacteroides thetaiotaomicron, ATCC29741, read-out: MIC, Agar

SMILES | MIC [1] | MIC [2]
CCC[C@@H]1C[C@@H](C(=O)N[C@@H]([C@H]2O[C@H](SC)[C@H](O)[C@@H](O)[C@H]2O)[C@H](C)Cl)N(C)C1 [Clindamycin, clindamycin] | 8 µg/mL (≈ 18.8 µM) | 8 µg/mL (≈ 18.8 µM)
CC(=O)NC[C@H]1CN(c2ccc(N3CCOCC3)c(F)c2)C(=O)O1 [Linezolid, linezolid] | 4 µg/mL (≈ 11.9 µM) | 4 µg/mL (≈ 11.9 µM)
